# Measured values from BindingDB's records for doi:10.1016/s0024-3205(97)00885-0 (Eli Lilly, 1997).
# Chains of the proteins cited; added tags and fusions are not shown. Lines headed by an entry give the natural chain unless they say otherwise; changes in a name come on top.
# UniProt P28222, whole entry: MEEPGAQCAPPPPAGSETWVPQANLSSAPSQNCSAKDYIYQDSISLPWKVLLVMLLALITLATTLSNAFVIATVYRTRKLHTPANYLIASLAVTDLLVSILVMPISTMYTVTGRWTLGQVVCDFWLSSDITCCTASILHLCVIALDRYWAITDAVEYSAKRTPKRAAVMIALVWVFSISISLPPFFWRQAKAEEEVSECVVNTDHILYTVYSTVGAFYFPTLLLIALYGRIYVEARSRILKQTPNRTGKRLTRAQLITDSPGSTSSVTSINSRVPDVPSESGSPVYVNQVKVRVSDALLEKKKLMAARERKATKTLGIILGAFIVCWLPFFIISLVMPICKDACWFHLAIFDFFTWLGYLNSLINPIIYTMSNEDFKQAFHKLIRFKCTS
# UniProt P28566: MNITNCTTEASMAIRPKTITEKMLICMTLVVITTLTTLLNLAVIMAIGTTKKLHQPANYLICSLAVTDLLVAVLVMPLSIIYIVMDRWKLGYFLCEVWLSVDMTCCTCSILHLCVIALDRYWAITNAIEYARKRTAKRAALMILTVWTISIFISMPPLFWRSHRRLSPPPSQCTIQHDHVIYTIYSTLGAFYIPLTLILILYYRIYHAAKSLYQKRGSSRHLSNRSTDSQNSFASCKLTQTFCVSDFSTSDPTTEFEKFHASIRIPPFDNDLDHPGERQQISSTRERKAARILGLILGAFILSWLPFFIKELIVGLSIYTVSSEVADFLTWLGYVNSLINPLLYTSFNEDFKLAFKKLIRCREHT
# Tests used:
# [1] = target: 5-hydroxytryptamine receptor 1B (Homo sapiens, UniProt P28222)
# [2] = target: 5-hydroxytryptamine receptor 1E (Homo sapiens, UniProt P28566)
smiles,measurement,setting,value
CN(C)C1CCc2[nH]c3ccc(NC(=O)c4ccc(F)cc4)cc3c2C1 (configuration not stated) [NSC_5311097],Ki,[1],0.549 µM
same,Ki,[2],1.41 µM
